Literature values, collected in US20250108091A1, “PROTEIN FORMULATION, PREPARATION METHOD THEREFOR AND USE THEREOF” (BEIJING LIANGYUAN BIO-SCIENCE, LLC, priority 2022, published 2025).

What was measured:
IL2Rα (CD25) = molecular target: T1, IL2Rα (CD25) (Homo sapiens, UniProt P01589); details: low affinity; cited from earlier work
T1 sequence (P01589 22-272): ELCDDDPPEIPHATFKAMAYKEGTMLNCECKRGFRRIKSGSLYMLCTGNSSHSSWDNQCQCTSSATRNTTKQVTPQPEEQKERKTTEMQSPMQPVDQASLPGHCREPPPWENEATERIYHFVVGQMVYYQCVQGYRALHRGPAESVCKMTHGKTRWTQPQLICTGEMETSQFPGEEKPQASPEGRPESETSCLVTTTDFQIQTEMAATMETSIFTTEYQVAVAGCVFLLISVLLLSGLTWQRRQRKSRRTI

αβγ trimer = molecular target: T2, αβγ trimer (Homo sapiens, UniProt P01589+P14784+P31785); details: high affinity; cited from earlier work
T2 sequence (P01589 22-272): T1 sequence (P01589 22-272)
T2 sequence (P14784 27-551): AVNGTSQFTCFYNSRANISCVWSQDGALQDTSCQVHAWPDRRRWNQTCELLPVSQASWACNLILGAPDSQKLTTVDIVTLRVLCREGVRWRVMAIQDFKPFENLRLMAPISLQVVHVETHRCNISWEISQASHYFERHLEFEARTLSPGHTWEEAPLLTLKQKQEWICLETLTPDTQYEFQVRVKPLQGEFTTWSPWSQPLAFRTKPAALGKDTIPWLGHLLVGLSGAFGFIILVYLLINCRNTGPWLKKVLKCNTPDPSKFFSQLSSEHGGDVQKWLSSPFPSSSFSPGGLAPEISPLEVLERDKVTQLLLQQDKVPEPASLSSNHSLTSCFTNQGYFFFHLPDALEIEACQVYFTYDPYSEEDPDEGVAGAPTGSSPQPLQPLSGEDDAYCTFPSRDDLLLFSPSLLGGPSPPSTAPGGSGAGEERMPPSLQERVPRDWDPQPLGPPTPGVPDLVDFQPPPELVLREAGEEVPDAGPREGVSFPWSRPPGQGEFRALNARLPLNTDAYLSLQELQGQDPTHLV
T2 sequence (P31785 23-369): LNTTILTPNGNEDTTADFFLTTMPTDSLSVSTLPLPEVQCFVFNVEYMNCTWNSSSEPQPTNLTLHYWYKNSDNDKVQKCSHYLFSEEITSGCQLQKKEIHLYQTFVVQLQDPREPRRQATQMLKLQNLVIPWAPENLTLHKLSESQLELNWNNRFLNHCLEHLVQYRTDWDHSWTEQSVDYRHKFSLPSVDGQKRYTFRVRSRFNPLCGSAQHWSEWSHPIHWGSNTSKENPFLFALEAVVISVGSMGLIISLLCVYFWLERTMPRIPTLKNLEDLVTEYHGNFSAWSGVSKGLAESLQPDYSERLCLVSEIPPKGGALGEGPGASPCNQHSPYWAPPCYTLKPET

Substance: IL2: T cell growth factor, glycoprotein of four α-helices, molecular weight 15.5 Kd
- Kd (IL2Rα (CD25)): ~10 nM
- Kd (αβγ trimer): ~0.01 nM
